Source: ChEMBL document CHEMBL3763031, “Design, synthesis and biological evaluation of monobactams as antibacterial agents against gram-negative bacteria” (2016)

Columns and labels:
Pseudomonas aeruginosa [1] = settings: 27853
Pseudomonas aeruginosa [2] = settings: PAO1

## GENTAMICIN
Pseudomonas aeruginosa [1]
  MIC: 0.5 µg/mL
Pseudomonas aeruginosa [2]
  MIC: 0.5 µg/mL
